# In ChEMBL document CHEMBL2390846, “Small-molecule pyrimidine inhibitors of the cdc2-like (Clk) and dual specificity tyrosine phosphorylation-regulated (Dyrk) kinases: development of chemical probe ML315” (Bioorg Med Chem Lett, 2013):
# Amino acid sequences for entries named in this document (tags omitted). A change or cut given only in a name is not applied to a line headed by its entry.
# UniProt Q9HAZ1: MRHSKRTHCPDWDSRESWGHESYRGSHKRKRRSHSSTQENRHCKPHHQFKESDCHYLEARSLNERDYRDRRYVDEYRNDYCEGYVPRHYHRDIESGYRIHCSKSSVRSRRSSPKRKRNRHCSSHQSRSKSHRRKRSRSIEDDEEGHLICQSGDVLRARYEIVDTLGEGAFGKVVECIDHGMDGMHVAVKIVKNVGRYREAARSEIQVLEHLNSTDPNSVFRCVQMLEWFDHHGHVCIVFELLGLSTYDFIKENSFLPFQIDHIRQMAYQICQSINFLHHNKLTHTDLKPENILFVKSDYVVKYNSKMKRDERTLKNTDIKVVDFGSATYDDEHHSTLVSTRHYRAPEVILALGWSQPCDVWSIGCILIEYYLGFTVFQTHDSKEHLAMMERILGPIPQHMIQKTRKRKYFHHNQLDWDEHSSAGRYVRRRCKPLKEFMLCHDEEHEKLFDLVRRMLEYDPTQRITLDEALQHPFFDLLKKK
# Biological target: Dual specificity protein kinase CLK4 (Homo sapiens, UniProt Q9HAZ1)
# Assay: Inhibition of CLK4 (unknown origin) by bioluminescence assay
smiles,measurement,value
c1cncc(CNc2ncncc2-c2ccc3c(c2)OCO3)c1,IC50,9.23 µM
